Two compounds from PubChem BioAssay AID678 (Vanderbilt High Throughput Screening Facility, 2007) can be followed below.

The list shows a part of the results, in another mix than the full data. Calls of active or inactive are those of the source.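 How the source made its calls: active means fluorescence response below the plate's average for near-maximal glutamate wells, less 3 SD of those wells; inactive means the rest.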

The assay addresses Metabotropic glutamate receptor 4 (Homo sapiens) (UniProt Q14833). Description: human mGluR4 response to M1 antagonist hits, M1 allosteric modulator project, cell-based, antagonist mode, secondary assay 1 (AID 678).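 Further: raw unnormalized fluorescence span taken in the window right after glutamate addition.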 Conditions: CHO-mGluR4 calcium flux, Fluo-4 fluorescence, glutamate EC80; at 10 µM; stronger effect = lower value.
Take `CN(C)CCOC(=O)C(O)(c1ccccc1)C1CCCCC1` (configuration not stated): the fluorescence response (max-min) was inactive: 240.

As for `CCN(CC)CC(O)COC(=O)C(O)(c1ccccc1)C1CCCCC1` (configuration not stated), the fluorescence response (max-min) is inactive: 258.
